Target: Adenosine receptor A2a (Homo sapiens, UniProt P29274)
Experiment: Inverse agonist activity at human A2A adenosine receptor expressed in CHO cells assessed as inhibition of basal cAMP level after 30 mins by Alphascreen assay relative to control
Assay type: functional, cell-based
How it was run: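 hA2A CHO cells exposed to varied compound concentrations without agonist, measuring decrease of basal cAMP; AlphaScreen detection (30 min acceptor beads, then 1 h donor beads with biotinylated cAMP). IC50 from sigmoid nonlinear fit, Emax efficacy; mean ± SEM.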

- Emax: 55%
SMILES: COc1ccccc1CNc1nc(N)c2nc(-c3ccccc3)sc2n1

Reference: ChEMBL document CHEMBL4118252, “Identification of novel thiazolo[5,4-d]pyrimidine derivatives as human A1 and A2A adenosine receptor antagonists/inverse agonists” (Bioorg Med Chem, 2018)
